{"source": "patent US8206772B2", "about": "“Structured lipid compositions and methods of formulation thereof” (Kraft Foods Global Brands LLC, priority 2007, dated 2012)", "origin": "cited, not measured here", "conditions": "rats, 5 percent and 10 percent of the diet", "data": [{"substance": "tripropionin", "values": [{"measurement": "nutritional value / toxicity when fed", "result": "toxic"}]}]}
